From PubChem BioAssay AID1467 (National Center for Advancing Translational Sciences (NCATS), 2008)
This is a selection; strong and weak results do not stand in their true shares. Activity calls are given as the source filed them. The call rests on the fitted dose curve; in most records, active means well fitted curve in the direction sought with a large enough effect; inconclusive means small, poorly fitted or top-dose-only effect, or effect the other way, or another doubt; inactive means no such curve, though single readings can be large or run the other way.

Amino acid sequences for entries named in this document (tags omitted).
UniProt P06280, whole entry: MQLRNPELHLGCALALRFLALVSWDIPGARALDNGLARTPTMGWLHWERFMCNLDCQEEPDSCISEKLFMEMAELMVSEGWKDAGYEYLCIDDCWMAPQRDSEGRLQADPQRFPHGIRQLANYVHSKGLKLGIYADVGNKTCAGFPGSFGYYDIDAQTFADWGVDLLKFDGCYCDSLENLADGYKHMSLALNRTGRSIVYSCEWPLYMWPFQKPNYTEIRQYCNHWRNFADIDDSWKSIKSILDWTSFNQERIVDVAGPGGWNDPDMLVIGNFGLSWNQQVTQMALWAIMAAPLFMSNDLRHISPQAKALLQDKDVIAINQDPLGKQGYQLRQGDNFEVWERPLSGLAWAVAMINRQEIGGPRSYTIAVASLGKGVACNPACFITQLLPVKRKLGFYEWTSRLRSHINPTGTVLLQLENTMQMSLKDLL

target: Alpha-galactosidase A (Homo sapiens) (UniProt P06280); assay: qHTS Assay for Inhibitors of Human alpha-Galactosidase at pH 4.5.;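 further: 0% = full activity with enzyme and -100% = basal without enzyme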; conditions: purified enzyme, 4-MU-alpha-Gal fluorescence; at 105 µM (top of the series) unless noted
Source text: NIH Chemical Genomics Center [NCGC]
NIH Molecular Libraries Probe Production centers Network [MLPCN]
Assay Submitter (PI): Wei Zheng
Alpha-galactosidase is a homodimeric glycoprotein that hydrolyzes the terminal alpha-galactosyl moieties from glycolipids and glycoproteins. Deficiency of this enzyme results in Fabry Disease with progressive accumulation of globotriaosylceramide and other glycosphingolipids in vascular endothelial cells that causes renal failure, myocardial infarction and stroke, and premature death in patients. It has been reported that the improper folding and trafficking of alpha-galactosidase resulting from the genetic mutations may account for a significant numbers of Fabry patients. […] We optimized this alpha-galactosidase assay in 1536-well plate format for identifying the novel small molecule inhibitors with the structures other than the sugar analogs in order to develop the new pharmacological chaperones. Although this assay has the same protocol as PubChem AID 992, this is a separate project and, therefore, is published as a separate assay
NCGC Assay Protocol Summary:
This is a fluorogenic enzyme assay with 4-Methylumbelliferyl alpha-D-galactopyranoside as the substrate and human […] as the enzyme preparation. Upon the hydrolysis of this fluorogenic substrate, the resulting product, […]. 4-Methyllumbelliferone, can be excited at 365 nm and emits at 440 nm. This fluorescence which can be detected by a standard fluorescence plate reader. Data were normalized to the controls for basal activity (without enzyme) and 100% activity (with enzyme). In the AC50 values were determined from concentration-response data modeled with the standard Hill equation.
Assay buffer: 50 mM citric acid (titrated with potassium phosphate to pH 4.5), 0.005% Tween-20, pH 4.5. (pH 4.5 is an optimal condition for this enzyme assay)
1536-well assay protocol for the human alpha-galactosidase:
(1) Add 2 ul/well of enzyme (12 nM final)
(2) Add 23 nL compounds in DMSO solution. The final titration was 0.7 nM to 77 uM.
(3) Add 1 ul of substrate (400 uM final)
(4) Incubate at room temperature for 20 min.
(5) Add 2 ul stop solution (1M NaOH and 1M Glycine mixture, pH 10)
(6) Detect the assay plate in a ViewLux plate reader (PerkinElmer) with Ex=365 nm and Em=440nm.
Keywords: MLSMR, MLPCN, NIH Roadmap, qHTS, NCGC, : Alpha-galactosidase, Fabry Disease, pharmacological chaperone, chaperone therapy

Q: How did the activity change, negative = inhibition turn out when `Cc1nn(-c2ccccc2)c2c1P(=O)(N1CCOCC1)N(C)C(c1ccccc1)=N2` (stereo not drawn) was run?
A: inactive: -0.77%

Q: For `COc1cc(C2NCCC3(OCCO3)C2(C)C)cc(OC)c1OC.O=[N+]([O-])c1cc([N+](=O)[O-])c(O)c([N+](=O)[O-])c1` (stereo not drawn), which activity change, negative = inhibition is on record?
A: inactive: -7.1%

Q: Which activity change, negative = inhibition does the source give for `CCCOc1ccc(NP(C)(=O)Oc2ccc(Cl)cc2)cc1` (stereo not drawn) here?
A: inactive: -0.612%

Q: How did the activity change, negative = inhibition turn out when `Nc1cccc([As](=O)(O)c2ccccc2)c1` was run?
A: inactive: 9.08%

Q: With `CP(=O)(Nc1ccc(SC(F)(F)F)cc1)Oc1ccccc1` (stereo not drawn) as the compound, how does the activity change, negative = inhibition read?
A: inactive: -2.74%

Q: `Cc1ccc(OCC(=O)OC2CN3CCC2CC3)cc1` (stereo not drawn) was tested. Which activity change, negative = inhibition did it give?
A: inactive: 6.27%

Q: `O=[As](O)(c1cccs1)c1cccs1` was tested. Which activity change, negative = inhibition did it give?
A: inactive: -3.64%

Q: For `O=P1(Nc2ccc(Br)cn2)COc2ccccc2OC1`, which activity change, negative = inhibition is on record?
A: inactive: -3.19%

Q: How did the activity change, negative = inhibition turn out when `CN1CCCCC1COC(=O)C1(O)c2ccccc2CCc2ccccc21` (stereo not drawn) was run?
A: inactive: 8.58%

Q: Which activity change, negative = inhibition does the source give for `COc1ccccc1OP(C)(=O)Nc1c(C)cccc1C` (stereo not drawn) here?
A: inactive: 1.62%

Q: How did the activity change, negative = inhibition turn out when `O=P1(Nc2ncccn2)COc2ccccc2OC1` was run?
A: inactive: 3.65%

Q: For `Cc1cc(SC(NC(=O)c2ccccc2)C(Cl)(Cl)Cl)nc(C(C)C)n1` (stereo not drawn), which activity change, negative = inhibition is on record?
A: inactive: 2.47%

Q: For `CCOC(=O)Nc1ccc([As](=O)(O)O)c(O)c1`, which activity change, negative = inhibition is on record?
A: inactive: 6.02%

Q: With `COc1ccccc1OP(C)(=O)Nc1ccccc1` (stereo not drawn) as the compound, how does the activity change, negative = inhibition read?
A: inactive: 3.27%

Q: `Cc1cc(SC(NC=O)C(Cl)(Cl)Cl)ncn1` (stereo not drawn) was tested. Which activity change, negative = inhibition did it give?
A: inactive: -3.1%

Q: How did the activity change, negative = inhibition turn out when `O=P(Nc1ccccn1)(c1cccc2ccccc12)c1cccc2ccccc12` was run?
A: inactive: -3.14%

Q: Which activity change, negative = inhibition does the source give for `O=[N+]([O-])c1ccc(Nc2ccc(Oc3ccc([N+](=O)[O-])cc3[N+](=O)[O-])cc2)c([N+](=O)[O-])c1` here?
A: inactive: 0.464%

Q: Which activity change, negative = inhibition does the source give for `CP(=O)(Nc1ccccc1Br)Oc1ccccc1` (stereo not drawn) here?
A: inactive: 7.7%

Q: With `CP(=S)(Nn1cnnc1)Oc1ccccc1` (stereo not drawn) as the compound, how does the activity change, negative = inhibition read?
A: inactive: 1.71%

Q: `CCOC(=O)Nc1cccc([As](=O)(O)O)c1` was tested. Which activity change, negative = inhibition did it give?
A: inactive: -3.21%

Q: Which activity change, negative = inhibition does the source give for `Cc1cc(C)cc(OP(C)(=O)Nc2ccc(SC(F)(F)F)cc2)c1` (stereo not drawn) here?
A: inactive: -10.1%

Q: How did the activity change, negative = inhibition turn out when `CP(=O)(NC(=O)Nc1ccccc1)Oc1ccccc1` (stereo not drawn) was run?
A: inactive: 3.76%

Q: How did the activity change, negative = inhibition turn out when `O=C(COc1ccccc1)OC1CN2CCC1CC2` (stereo not drawn) was run?
A: inactive: -3.57%

Q: With `CCc1ccc(OP(C)(=O)N2CCN(c3ccc([N+](=O)[O-])cc3)CC2)cc1` (stereo not drawn) as the compound, how does the activity change, negative = inhibition read?
A: inactive: -5.71%

Q: How did the activity change, negative = inhibition turn out when `CP(=O)(Oc1ccccc1)OC(c1ccccc1)C(F)(F)F` (stereo not drawn) was run?
A: inactive: 2.84%

Q: `COP1(=S)c2c(C)nn(CCC#N)c2N=C(c2ccc(F)cc2)N1C` (stereo not drawn) was tested. Which activity change, negative = inhibition did it give?
A: inactive: 0.152%

Q: With `CP(=O)(Nc1ccc(SC(F)(F)F)cc1)Oc1ccc(Cl)cc1` (stereo not drawn) as the compound, how does the activity change, negative = inhibition read?
A: inactive: -5.05%

Q: `Cc1cccc(C)c1OP(C)(=O)Nc1ccc(SC(F)(F)F)cc1` (stereo not drawn) was tested. Which activity change, negative = inhibition did it give?
A: inactive: -10.4%

Q: With `CCC(C)N(CC(C)C)C(=S)SC(NC(C)=O)C(Cl)(Cl)Cl` (stereo not drawn) as the compound, how does the activity change, negative = inhibition read?
A: inactive: -6.07%

Q: How did the activity change, negative = inhibition turn out when `CP(=O)(Nc1ccccn1)Oc1ccc(Cl)cc1` (stereo not drawn) was run?
A: inactive: 8.83%

Q: Which activity change, negative = inhibition does the source give for `CCOP(C)(=S)SCC(=O)NC(C)C(=O)O` (stereo not drawn) here?
A: inactive: 3.85%

Q: `CCOC(=O)c1ccc(NC(=O)C(C)(CCl)SC)cc1` (stereo not drawn) was tested. Which activity change, negative = inhibition did it give?
A: inactive: -1.83%

Q: With `CCOC(=O)c1ccc(NP(C)(=O)Oc2ccc(OC)cc2)cc1` (stereo not drawn) as the compound, how does the activity change, negative = inhibition read?
A: inactive: -4.21%

Q: How did the activity change, negative = inhibition turn out when `COc1cc(I)ccc1[As](=O)(O)O` was run?
A: inactive: 6.34%

Q: With `COc1ccc2nc(NP(=O)(c3ccccc3)c3ccccc3)sc2c1` as the compound, how does the activity change, negative = inhibition read?
A: inactive: 2.54%

Q: Which activity change, negative = inhibition does the source give for `Cc1c2c(nc3ccccc13)SC(C(Cl)Cl)C2` (stereo not drawn) here?
A: inactive: -7.35%

Q: With `Cc1cc(=O)[nH]c(N[N+](=O)[O-])n1` as the compound, how does the activity change, negative = inhibition read?
A: inactive: 5.48%

Q: Which activity change, negative = inhibition does the source give for `CCN(CC)CCCOC(=O)C(O)(c1ccccc1)c1ccccc1` here?
A: inactive: -26.1%

Q: With `O=C(OC1CN2CCC1CC2)C12CC3CC(CC(C3)C1)C2` (stereo not drawn) as the compound, how does the activity change, negative = inhibition read?
A: inactive: 1.68%

Q: How did the activity change, negative = inhibition turn out when `COc1ccc(N/C(=N/P(=O)(N2CCOCC2)N2CCOCC2)N2CCOCC2)cc1` was run?
A: inactive: 4.99%

Q: Which activity change, negative = inhibition does the source give for `Cc1cccc(C)c1OP(C)(N)=O` (stereo not drawn) here?
A: inactive: 12.2%

Q: `Cc1ccc(OP(=O)(Nc2ccc([N+](=O)[O-])cn2)Oc2ccc(C)cc2)cc1` was tested. Which activity change, negative = inhibition did it give?
A: inactive: -9.28%

Q: For `CC(C)(C)c1ccc(OP(C)(=O)Nc2ccc(SC(F)(F)F)cc2)cc1` (stereo not drawn), which activity change, negative = inhibition is on record?
A: inactive: -13.1%

Q: Which activity change, negative = inhibition does the source give for `O=[N+]([O-])c1ccc2c(c1)C=Nc1ccccc1O2` here?
A: inactive: 2.66%

Q: `Cc1ccc2nc3c(c(C)c2c1)CC(C(Cl)Cl)S3` (stereo not drawn) was tested. Which activity change, negative = inhibition did it give?
A: inactive: 1.43%

Q: Which activity change, negative = inhibition does the source give for `O=[As](O)(c1ccc(O)cc1)c1ccccc1O` here?
A: inactive: -0.38%

Q: `C[As](=O)(O)c1cccc(C(=O)O)c1` was tested. Which activity change, negative = inhibition did it give?
A: inactive: -0.634%

Q: `COc1ccc(OP(C)(=O)Nc2cccc(F)c2)cc1` (stereo not drawn) was tested. Which activity change, negative = inhibition did it give?
A: inactive: 8.38%

Q: With `O=[N+]([O-])c1cc([N+](=O)[O-])c(-c2ccn[nH]2)s1` as the compound, how does the activity change, negative = inhibition read?
A: inactive: 2.81%

Q: `CC(C)NC(=O)NP(=O)(Oc1ccccc1)Oc1ccccc1` was tested. Which activity change, negative = inhibition did it give?
A: inactive: -1.67%

Q: For `COc1ccccc1OP(C)(=O)Nc1cc(Cl)ccc1C` (stereo not drawn), which activity change, negative = inhibition is on record?
A: inactive: 6.25%

Q: How did the activity change, negative = inhibition turn out when `CCN(CC)C(=S)SC(NC=O)C(Cl)(Cl)Cl` (stereo not drawn) was run?
A: inactive: -15.8%

Q: How did the activity change, negative = inhibition turn out when `Cc1cc(C)cc(OP(C)(N)=O)c1` (stereo not drawn) was run?
A: inactive: 6.09%

Q: How did the activity change, negative = inhibition turn out when `ClCCSc1nnc(-c2cccnc2)o1` was run?
A: inactive: 12.1%

Q: With `CCOC(=O)c1ccc(NP(C)(=O)Oc2ccccc2)cc1` (stereo not drawn) as the compound, how does the activity change, negative = inhibition read?
A: inactive: 2.4%

Q: How did the activity change, negative = inhibition turn out when `Cc1ccc(NP(C)(=O)Oc2ccccc2)c(C)c1` (stereo not drawn) was run?
A: inactive: -1.24%

Q: Which activity change, negative = inhibition does the source give for `CC(C)c1ccc(OP(=O)(Nc2ccccn2)Oc2ccccc2F)cc1` (stereo not drawn) here?
A: inactive: -1.67%

Q: `COc1ccccc1OP(C)(=O)Nc1ccc(C)cc1` (stereo not drawn) was tested. Which activity change, negative = inhibition did it give?
A: inactive: -1.66%
